Source: ChEMBL document CHEMBL4118196, “Design and synthesis of a series of bioavailable fatty acid synthase (FASN) KR domain inhibitors for cancer therapy” (Bioorg Med Chem Lett, 2018)

The chains behind the UniProt entries cited, without tags or fusion partners.
UniProt P49327, whole entry: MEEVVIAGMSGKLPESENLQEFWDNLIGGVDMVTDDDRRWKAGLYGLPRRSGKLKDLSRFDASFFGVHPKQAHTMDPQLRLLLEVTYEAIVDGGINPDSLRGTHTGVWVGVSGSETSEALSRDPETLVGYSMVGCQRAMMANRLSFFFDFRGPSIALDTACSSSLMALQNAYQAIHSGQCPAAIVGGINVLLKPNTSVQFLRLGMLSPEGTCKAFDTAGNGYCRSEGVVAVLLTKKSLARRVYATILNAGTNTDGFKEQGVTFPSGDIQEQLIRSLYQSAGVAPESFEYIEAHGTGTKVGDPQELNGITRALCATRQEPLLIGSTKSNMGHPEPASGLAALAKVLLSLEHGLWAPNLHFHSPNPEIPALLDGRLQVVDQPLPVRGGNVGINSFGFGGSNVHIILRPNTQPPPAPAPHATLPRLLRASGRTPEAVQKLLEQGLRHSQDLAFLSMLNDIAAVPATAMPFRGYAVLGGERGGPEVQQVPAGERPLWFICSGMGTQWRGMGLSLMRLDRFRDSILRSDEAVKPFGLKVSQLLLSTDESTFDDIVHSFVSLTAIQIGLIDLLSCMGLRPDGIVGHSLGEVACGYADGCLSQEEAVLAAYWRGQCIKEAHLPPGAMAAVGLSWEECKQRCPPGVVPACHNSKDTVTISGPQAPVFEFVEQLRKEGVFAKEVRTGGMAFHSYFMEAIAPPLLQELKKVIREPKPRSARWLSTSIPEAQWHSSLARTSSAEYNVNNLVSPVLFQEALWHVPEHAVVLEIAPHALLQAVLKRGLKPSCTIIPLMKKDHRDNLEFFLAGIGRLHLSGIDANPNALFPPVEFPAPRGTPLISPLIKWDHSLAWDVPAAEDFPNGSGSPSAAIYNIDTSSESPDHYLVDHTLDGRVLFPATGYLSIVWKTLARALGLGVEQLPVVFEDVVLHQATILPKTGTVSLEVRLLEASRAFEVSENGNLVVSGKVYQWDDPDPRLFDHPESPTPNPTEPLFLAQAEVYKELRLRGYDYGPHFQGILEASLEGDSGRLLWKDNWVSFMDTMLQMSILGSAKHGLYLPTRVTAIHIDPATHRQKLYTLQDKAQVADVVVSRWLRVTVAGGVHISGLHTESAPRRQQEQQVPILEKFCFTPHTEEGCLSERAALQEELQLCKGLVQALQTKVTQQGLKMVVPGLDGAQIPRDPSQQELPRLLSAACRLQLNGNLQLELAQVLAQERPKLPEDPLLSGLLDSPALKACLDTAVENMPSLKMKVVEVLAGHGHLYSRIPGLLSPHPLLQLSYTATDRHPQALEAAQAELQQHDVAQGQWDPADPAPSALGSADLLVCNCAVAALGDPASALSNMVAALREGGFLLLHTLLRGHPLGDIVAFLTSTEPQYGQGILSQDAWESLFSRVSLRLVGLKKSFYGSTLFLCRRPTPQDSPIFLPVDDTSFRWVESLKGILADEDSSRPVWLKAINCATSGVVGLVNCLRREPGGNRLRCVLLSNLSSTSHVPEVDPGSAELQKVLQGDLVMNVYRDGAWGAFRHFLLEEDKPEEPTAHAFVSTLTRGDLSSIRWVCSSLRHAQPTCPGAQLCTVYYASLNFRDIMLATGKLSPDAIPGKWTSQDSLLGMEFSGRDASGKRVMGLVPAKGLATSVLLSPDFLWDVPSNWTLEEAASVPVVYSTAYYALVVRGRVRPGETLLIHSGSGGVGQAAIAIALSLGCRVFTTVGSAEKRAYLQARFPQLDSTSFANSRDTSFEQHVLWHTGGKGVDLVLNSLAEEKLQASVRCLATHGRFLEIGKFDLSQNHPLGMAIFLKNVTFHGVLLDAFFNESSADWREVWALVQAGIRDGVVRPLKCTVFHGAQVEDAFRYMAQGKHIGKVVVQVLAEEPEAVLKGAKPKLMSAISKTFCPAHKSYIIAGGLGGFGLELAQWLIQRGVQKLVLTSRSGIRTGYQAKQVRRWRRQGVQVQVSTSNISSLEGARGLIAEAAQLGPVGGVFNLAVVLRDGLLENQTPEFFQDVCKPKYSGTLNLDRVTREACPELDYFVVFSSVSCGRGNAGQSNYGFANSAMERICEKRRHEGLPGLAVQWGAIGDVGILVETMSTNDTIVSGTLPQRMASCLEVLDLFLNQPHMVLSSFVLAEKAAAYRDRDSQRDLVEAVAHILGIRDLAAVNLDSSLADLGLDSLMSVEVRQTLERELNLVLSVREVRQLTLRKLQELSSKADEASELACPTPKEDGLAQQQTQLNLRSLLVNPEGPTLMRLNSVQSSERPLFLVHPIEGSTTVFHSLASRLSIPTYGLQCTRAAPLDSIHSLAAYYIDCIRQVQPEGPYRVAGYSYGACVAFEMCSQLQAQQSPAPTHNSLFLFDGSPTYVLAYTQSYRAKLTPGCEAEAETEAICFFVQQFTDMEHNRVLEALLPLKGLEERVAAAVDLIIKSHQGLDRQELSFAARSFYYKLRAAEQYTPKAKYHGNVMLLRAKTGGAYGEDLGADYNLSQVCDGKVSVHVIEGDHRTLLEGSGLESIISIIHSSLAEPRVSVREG

Each compound was assayed against Fatty acid synthase (Homo sapiens, UniProt P49327).

Point of comparison: O=C(C1CC1)N1CC[C@@H](CN2C(=O)C3(CC3)N=C2c2ccc(-c3ccc4ncccc4c3)cc2)C1, IC50 160 nM. Against it:
- O=C(C1CC1)N1CC[C@@H](CN2C(=O)C3(CC3)N=C2c2ccc(-c3ccc4cnccc4c3)cc2)C1 — 8-fold lower, 20 nM
- O=C(C1CC1)N1CC[C@@H](CN2C(=O)C3(CC3)N=C2c2ccc(-c3cnc4ccccc4c3)cc2)C1 — within 1.5-fold, 120 nM
- Cn1ncc2cc(-c3ccc(C4=NC5(CC5)C(=O)N4C[C@@H]4CCN(C(=O)C5CC5)C4)c(F)c3)ccc21 — 7.3-fold lower, 22 nM
- Cn1ncc2cc(-c3ccc(C4=NC5(CC5)C(=O)N4C[C@@H]4CCCN(C(=O)C5CC5)C4)cc3)ccc21 — higher, > 10000 nM
- Cn1ncc2cc(-c3ccc(C4=NC5(CC5)C(=O)N4C[C@H]4CCCN(C(=O)C5CC5)C4)cc3)ccc21 — 53-fold higher, 8510 nM
- O=C(C1CC1)N1CC[C@@H](CN2C(=O)C3(CC3)N=C2c2ccc(-c3ccc4[nH]ncc4c3)cc2)C1 — 5-fold lower, 32 nM
- CC(=O)N1CCC2(CC1)N=C(c1ccc(-c3ccc4c(cnn4C)c3)cc1)N(C[C@@H]1CCN(C(=O)C3CC3)C1)C2=O — within 1.5-fold, 200 nM
- Cn1ncc2cc(-c3ccc(C4=NC5(CC5)C(=O)N4CC4CN(C(=O)C5CC5)C4)cc3)ccc21 — 2.3-fold lower, 69 nM
- Cc1cc(-c2ccc3c(cnn3C)c2)ccc1C1=NC2(CC2)C(=O)N1C[C@@H]1CCN(C(=O)C2CC2)C1 — 3.1-fold lower, 51 nM
- O=C(C1CC1)N1CC[C@@H](CN2C(=O)C3(CC3)N=C2c2ccc(-c3ccc4occc4c3)cc2)C1 — 3.5-fold lower, 46 nM
- Cc1cc(C2=NC3(CC3)C(=O)N2C[C@@H]2CCN(C(=O)C3CC3)C2)ccc1-c1ccc2c(cnn2C)c1 — 1.9-fold higher, 300 nM
